Test results reported in article PMC10809502, “Application of a new MDCKII-MDR1 cell model to measure the extent of drug distribution in vitro at equilibrium for prediction of in vivo unbound brain-to-plasma drug distribution” (Fluids and Barriers of the CNS, 2024).

System: MDCKII-cells transfected with the human P-gp-transporter (hMDR1)
Conditions: from efflux ratio

In the case of `O=C1CC2(CCCC2)CC(=O)N1CCCCN1CCN(c2ncccn2)CC1` [Buspirone, buspirone], the “Human P-gp substrate classification” value was “Unlikely (unlikely substrates: ER < 1.5)”.
